Literature values as cited in patent US11747352B2 (Concordia University, Inc., priority 2017, dated 2023).

Conditions: Table CYP1A2; cited from earlier work

SMILES: CN(C)CCc1c[nH]c2ccc(C[C@H]3COC(=O)N3)cc12 [Zolmirripran]
- HALF LIFE: 3 h
